Assay results taken from US20240197869A1, “HYPERACTIVATORS OF MAMMALIAN DENDRITIC CELLS” (Corner Therapeutics, Inc., priority 2021, published 2024).

Each compound was assayed on human monocyte-derived dendritic cells (moDCs) (assay: DAMP screen: IL-1β secretion by LPS-activated human moDCs (ELISA)). Settings: lipid screens at 82.5 or 41.3 μM + LPS 1 μg/mL.
Type: cell-based

| Structure (SMILES) | IL-1β secretion (in words) |
| --- | --- |
| CCCCCCCCCCCCCCCCCCCCCC(=O)OC[C@@H](O)COP(=O)([O-])OCC[N+](C)(C)C [22:0 LYSO PC, 1-behenoyl-2-hydroxy-sn-glycero-3-phosphocholine] | robust induction of IL-1β secretion |
| CCCCCCCC/C=C\CCCCCCCC(=O)O[C@H](CO)COP(=O)([O-])OCC[N+](C)(C)C [2-18:1 Δ9 LYSO PC, 1-hydroxy-2-oleoyl-sn-glycero-3-phosphocholine] | did not induce IL-1beta secretion |
| CCCCCCCCCCCCCCCC(=O)OC[C@H](COP(=O)([O-])OCC[N+](C)(C)C)OC(=O)CCCCCCCC(=O)O [PAzePC, 1-palmitoyl-2-azelaoyl-sn-glycero-3-phosphocholine, reference compound] | promoted IL-1β secretion |
| CCCCCCCCCC(=O)OC[C@@H](O)COP(=O)([O-])OCC[N+](C)(C)C [10:0 LYSO PC] | just outside the range of IL-1β secretion activity |
| CCCCCCCCCCCC(=O)OC[C@@H](O)COP(=O)([O-])OCC[N+](C)(C)C [12:0 LYSO PC] | smallest acyl chain lipid to stimulate IL-1β secretion |
| CCCCCCCCCCCCCCCCCC(=O)O[C@H](CO)COP(=O)([O-])OCC[N+](C)(C)C [2-18:0 LYSO PC, 2-stearoyl-sn-glycero-3-phosphocholine] | able to induce IL-1beta secretion |
| CCCCCCCCCCCCCCCCCCC(=O)OC[C@@H](O)COP(=O)([O-])OCC[N+](C)(C)C [19:0 LYSO PC, 1-nonadecanoyl-2-hydroxy-sn-glycero-3-phosphocholine] | robust induction of IL-1β secretion |
| CCCCCCCCCCCCCCCCCCCCCCCC(=O)OC[C@@H](O)COP(=O)([O-])OCC[N+](C)(C)C [24:0 LYSO PC, 1-lignoceroyl-2-hydroxy-sn-glycero-3-phosphocholine] | just outside the range of IL-1β secretion activity |
| CCCCCC/C=C\CCCCCCCCC(=O)OC[C@@H](O)COP(=O)([O-])OCC[N+](C)(C)C [17:1 Δ^10 LYSO PC, 1-(10Z-heptadecenoyl)-2-hydroxy-sn-glycero-3-phosphocholine] | did not induce IL-1beta secretion |

These compounds were tested on non-human primate, monocyte-derived dendritic cells (moDC) (assay: IL-1beta secretion by non-human primate moDC). Settings: lipid 82.5 or 41.3 uM with R848, 2 days.
Type: cell-based, rhesus macaques
Protocol: Non-human primate moDC differentiation and hyperactivation. Whole blood from rhesus macaques was diluted with an equal volume of PBS and over-layed on Ficoll-Paque PLUS solution. Cells were spun at 1000 rcf for 30 minutes at room temperature with no brakes. Buffy coat layer was collected, washed twice using PBS, and counted. To isolate monocytes from the PBMC, human CD14 microbeads from Miltenyi were used according to manufacturer's recommendations. […] Cells were grown in R10 media consisting of RPMI, 10% FBS, penicillin, streptomycin, L-glutamine, sodium pyruvate, and beta-mercaptoethanol.
Differentiated moDC were collected, counted, and plated at 1×10^5 cells/well in a 96-well plate. Cells were treated with or without hyperactivating stimuli. Hyperactivation cultures were incubated for 2 days before assessing cell viability and IL-1beta secretion. Promega Cell Titer-Glo was used according to manufacturer's instructions to quantify ATP as a measure of cell viability. ELISA kits specific for non-human primate IL-1beta were purchased from Invitrogen, and assays were completed according to manufacturer's instructions.
Statistical Analyses. Rhesus macaque moDC were generated from four animals. Each activation condition was tested in triplicate and reported data points are the mean of the triplicates for an animal donor sample. […]

| Structure (SMILES) | IL-1beta detection in supernatant (lipid concentrations) |
| --- | --- |
| CCCCCCCCCCCCCCCCCCCCCC(=O)OC[C@@H](O)COP(=O)([O-])OCC[N+](C)(C)C [22:0 LYSO PC, 1-behenoyl-2-hydroxy-sn-glycero-3-phosphocholine] | detectable IL-1beta at 82.5 uM and 41.3 uM |
| CCCCCCCCCCCCCCCC(=O)OC[C@H](COP(=O)([O-])OCC[N+](C)(C)C)OC(=O)CCCC(=O)O [PGPC, 1-palmitoyl-2-glutaryl-sn-glycero-3-phosphocholine, reference compound] | only detectable at 82.5 uM |
